One data set relates to primary rat hepatocytes. As to the kind of experiment: Hepatotoxicity in primary rat hepatocytes (MTT cell viability, LDH release). Conditions: 10 μM (higher concentration, therefore not used). In general terms: LDH in the medium is a marker of cell lysis.
In the next data set the test system is diabetic rats. Conditions: DM-AH: diabetic rats, 40 mg/kg; on day 8.

On to `CC(=O)N1CCN(c2ccc(OCC3COC(Cn4ccnc4)(c4ccc(Cl)cc4Cl)O3)cc2)CC1` (centres unmarked) [ketoconazole, Ketoconazole], for which the “cytotoxicity in primary hepatocytes” value in the data set on primary rat hepatocytes was “cytotoxicity”.
Regarding `CC(C)c1c(C(=O)Nc2ccccc2)c(-c2ccccc2)c(-c2ccc(F)cc2)n1CC[C@@H](O)C[C@@H](O)CC(=O)O` [atorvastatin, Atorvastatin calcium], in the data set on diabetic rats, the mortality entry is “all died”.

Source of the values: paper PMC5021965 (Scientific Reports, 2016).
